Experimental findings from ChEMBL document CHEMBL4190229, “Growth Inhibition of Colon Cancer and Melanoma Cells by Versiol Derivatives from a Paraconiothyrium Species” (J Nat Prod, 2017) are described below.

One assay relates to KM12. In words: Antiproliferative activity against human KM12 cells after 48 hrs by XTT assay. The format is functional, cell-based.
Another assay concerns COLO 205. In words: Antiproliferative activity against human COLO205 cells after 48 hrs by XTT assay. Format: functional, cell-based. A general note: Tetrazolium assays rely on reduction of a dye to a coloured formazan, in cell work by metabolically active cells.

For the compound `CC(=O)CC/C=C(\C)[C@H](O)[C@H](C)C(=O)O[C@H]1C[C@H](C)C=C2C=C[C@@]3(C)O[C@@H](O)CC(=O)[C@]3(C)[C@H]21`, the Activity entry with KM12 and in the assay on COLO 205 was “Dose-dependent effect” in each case.

Regarding `CC(/C=C/C=C(\C)[C@H](O)[C@H](C)C(=O)O[C@H]1C[C@H](C)C=C2C=C[C@@]3(C)O[C@@H](O)CC(=O)[C@]3(C)[C@H]21)=C\C=C\C(=O)O`, the Activity entry with KM12 and in the assay on COLO 205 was “Dose-dependent effect” in each case.

With `C/C(=C\C=C\[C@H](C)CC(=O)O)[C@H](O)[C@H](C)C(=O)O[C@H]1C[C@@H](C)[C@@H](O)c2ccc(C)c(C)c21`, the Activity entry with KM12 and with COLO 205 was “Dose-dependent effect” in each case.
